# Antibody variant affinities, Ab-14 light chain, assay B

Source: Li et al. 2023 (doi:10.1038/s41467-023-39022-2), MIT Lincoln Laboratory and A-Alpha Bio; data file from the FLAb repository.

Target: peptide PDVDLGDISGINAS, taken from heptad repeat 2 (HR2) of SARS-CoV-2 spike.

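The parent was found by panning a naive human phage display library on the peptide. Designed CDR sequences, proposed from the first random library and measured here. Several design methods are mixed in this list. Affinity was read by AlphaSeq, a pooled yeast mating assay with surface-displayed partners. Pairs that bind mate more often; barcode pairs of the diploids are counted by sequencing. Scores were corrected for input abundance and mapped to Kd with protein pairs of known affinity run in the same pool. There are six technical replicates.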

Ab-14 is the parent antibody, in scFv form: VH, then a (GGGGS)3 linker, then VL. The heavy chain is unchanged in all variants.
VH: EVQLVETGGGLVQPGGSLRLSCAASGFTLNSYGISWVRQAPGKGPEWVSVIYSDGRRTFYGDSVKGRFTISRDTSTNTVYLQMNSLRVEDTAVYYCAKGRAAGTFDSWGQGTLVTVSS
VL: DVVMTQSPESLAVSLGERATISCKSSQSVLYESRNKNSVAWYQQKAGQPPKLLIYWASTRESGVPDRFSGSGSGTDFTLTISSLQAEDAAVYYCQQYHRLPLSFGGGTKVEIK

Positions count from residue 1 of the parent VL; V29W puts W in place of V.
This list holds designs with at most six substitutions.
Kd is apparent (estimated from mating counts) and averaged on the log scale over replicates with a signal. Smaller is tighter.
An entry "nd" has no value in the source: the pair was not observed among the diploids in any replicate. This suggests poor binding but is not conclusive.
In the paper, a design with two or fewer of six values counts as a poor binder.
Values of this round are not directly comparable with the first-round values of the same sequences.
Of ten entries with the parent sequence, four were seen in most replicates (averages 2.2 nM to 240 nM), three in one and three in none, so single entries are noisy.
Three control strains display no target. For all light chain designs, 4% of the pairings with them gave a signal, with a median of 430 nM and one signal in twenty below 38 nM, so weak values seen in few replicates may be background. For each scFv, signals with the empty controls are counted beside the result.

The variant V29W K36F N37W W56G T59Q gave 6.0 nM (6 of 6 replicates; controls 1 of 18). For L30K Y31A W56D, the assay gave 1.9 nM (6 of 6 replicates; controls 0 of 18). The variant Y31G S58L Q95G Q96K showed nd (0 of 6 replicates; controls 0 of 18). The variant S25I R34M W56E P101E L102W S103F gave nd (0 of 6 replicates; controls 0 of 18). For S25M W56N, the assay gave 530 pM (6 of 6 replicates; controls 1 of 18).

With Q27S V29Y R34E W56E T59Q the result was 1.9 nM (6 of 6 replicates; controls 2 of 18). The variant S25V R34V P101M gave nd (0 of 6 replicates; controls 0 of 18). The variant K24S A57G gave 130 nM (6 of 6 replicates; controls 0 of 18). The variant S26Q Y31D W56T P101E showed nd (0 of 6 replicates; controls 0 of 18). For S28H K36D S62P, the assay gave 540 nM (4 of 6 replicates; controls 1 of 18).

The variant S25N N35F K36M W56D showed 2.2 nM (6 of 6 replicates; controls 0 of 18). The variant S26G S28L R99I gave 60 nM (1 of 6 replicates; controls 0 of 18). The variant Q27I V29H Y31G S33K W56E showed 14 nM (6 of 6 replicates; controls 2 of 18). For S25V N35T W56N Y97V, the assay gave 2.4 nM (6 of 6 replicates; controls 2 of 18). With S25L S26R V29I L30N W56N the result was 670 pM (6 of 6 replicates; controls 1 of 18).

The variant S33D N37R T59Q Q96T H98E showed 1.0 µM (1 of 6 replicates; controls 1 of 18). The variant S25L S26D V29T K36P showed 1.6 nM (6 of 6 replicates; controls 1 of 18). With S26G S28G L30T A40P W56G E61W the result was 5.0 nM (6 of 6 replicates; controls 1 of 18). The variant E32D T59V showed 26 nM (6 of 6 replicates; controls 1 of 18). The variant S25A Q27I K36E W56E S62Q gave nd (0 of 6 replicates; controls 1 of 18).

With S25L V29T E32D R34Q the result was 11 nM (6 of 6 replicates; controls 1 of 18). With S28T W56A the result was 3.2 nM (6 of 6 replicates; controls 0 of 18). The variant L30P S58Q R99H S103H showed nd (0 of 6 replicates; controls 0 of 18). With S25L S26P W56E the result was 750 pM (6 of 6 replicates; controls 1 of 18). With E61F S62R H98S the result was 37 nM (1 of 6 replicates; controls 1 of 18).

The variant S25V L30W W56N T59Q gave 880 pM (6 of 6 replicates; controls 2 of 18). With S25L S26E V29W L30E W56N T59Q the result was 29 nM (4 of 6 replicates; controls 0 of 18). The variant Q27I V29Y R34G W56E showed 2.1 nM (6 of 6 replicates; controls 1 of 18). The variant S26L N35D W56H S62D R99W gave 3.3 nM (6 of 6 replicates; controls 1 of 18). The variant W56E A57R E61A gave 2.4 nM (6 of 6 replicates; controls 4 of 18).

For S25L V29E Y31F W56D, the assay gave 500 pM (6 of 6 replicates; controls 1 of 18). The variant S26Q V29Q W56N S62D showed 740 pM (6 of 6 replicates; controls 0 of 18). With S25V S26Q V29E W56N E61C the result was 2.6 nM (6 of 6 replicates; controls 1 of 18). The variant S26T H98A gave 94 nM (6 of 6 replicates; controls 1 of 18). The variant K36S S38N W56K S58A gave 1.9 nM (6 of 6 replicates; controls 0 of 18).

The variant S25L L30G S62R gave 23 nM (6 of 6 replicates; controls 2 of 18). For S26P V29L, the assay gave nd (0 of 6 replicates; controls 0 of 18). For V29D K36G W56N E61M S62D, the assay gave 1.1 nM (6 of 6 replicates; controls 0 of 18). The variant S25F Y31E showed 13 nM (6 of 6 replicates; controls 1 of 18). The variant S25M S26Q Q27A V29Q L30G W56Q showed 1.1 nM (6 of 6 replicates; controls 0 of 18).

With S25V S26G S28G K36W W56G the result was 1.4 nM (6 of 6 replicates; controls 1 of 18). The variant S25L S26Q V29W L30D W56N gave 400 pM (6 of 6 replicates; controls 0 of 18). The variant S25L S26Q W56H S62D R99Q gave 2.8 nM (6 of 6 replicates; controls 2 of 18). For S25L L30P W56E, the assay gave 4.1 nM (6 of 6 replicates; controls 2 of 18). The variant S25L K36P W56N E61L showed 430 pM (6 of 6 replicates; controls 1 of 18).

The variant S25F Q27P N35D W56N gave 450 pM (6 of 6 replicates; controls 2 of 18). For R34T S58G, the assay gave nd (0 of 6 replicates; controls 0 of 18).

The opening 5 entries, copied out:

{"changes": "V29W K36F N37W W56G T59Q", "Kd": "6.0 nM", "seen in": "6/6", "signal with controls": "1/18"}
{"changes": "L30K Y31A W56D", "Kd": "1.9 nM", "seen in": "6/6", "signal with controls": "0/18"}
{"changes": "Y31G S58L Q95G Q96K", "Kd": "nd", "seen in": "0/6", "signal with controls": "0/18"}
{"changes": "S25I R34M W56E P101E L102W S103F", "Kd": "nd", "seen in": "0/6", "signal with controls": "0/18"}
{"changes": "S25M W56N", "Kd": "530 pM", "seen in": "6/6", "signal with controls": "1/18"}